Data from ChEMBL document CHEMBL4304815, “Photoswitchable Inhibitor of the Calcium Channel TRPV6” (ACS Med Chem Lett, 2019).

Target: T1, Transient receptor potential cation channel subfamily V member 6 (Homo sapiens, UniProt Q9H1D0)
T1 sequence (Q9H1D0 whole entry): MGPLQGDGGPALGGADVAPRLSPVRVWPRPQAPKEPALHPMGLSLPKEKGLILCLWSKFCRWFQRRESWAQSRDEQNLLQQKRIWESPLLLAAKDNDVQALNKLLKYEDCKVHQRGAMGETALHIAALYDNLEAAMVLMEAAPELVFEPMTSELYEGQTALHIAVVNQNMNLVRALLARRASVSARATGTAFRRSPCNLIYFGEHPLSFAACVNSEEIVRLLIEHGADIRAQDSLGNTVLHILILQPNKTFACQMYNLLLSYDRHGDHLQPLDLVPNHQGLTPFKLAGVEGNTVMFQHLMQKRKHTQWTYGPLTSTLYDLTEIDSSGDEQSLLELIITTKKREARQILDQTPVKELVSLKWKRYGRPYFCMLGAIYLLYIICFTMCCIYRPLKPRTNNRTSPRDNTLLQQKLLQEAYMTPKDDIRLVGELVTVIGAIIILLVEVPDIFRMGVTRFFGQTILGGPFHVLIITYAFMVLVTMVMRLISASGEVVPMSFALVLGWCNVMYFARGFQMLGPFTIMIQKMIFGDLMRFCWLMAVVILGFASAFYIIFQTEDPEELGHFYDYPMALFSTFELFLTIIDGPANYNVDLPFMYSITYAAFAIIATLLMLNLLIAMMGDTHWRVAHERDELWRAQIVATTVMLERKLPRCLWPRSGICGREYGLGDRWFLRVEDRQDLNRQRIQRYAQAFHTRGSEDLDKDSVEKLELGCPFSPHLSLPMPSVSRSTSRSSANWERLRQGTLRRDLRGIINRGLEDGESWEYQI
Assay: Inhibition of human TRPV6 expressed in HEK293 cells assessed as reduction of Cd2+ influx preincubated for 5 mins followed by CdCl2 addition by calcium-5 fluorescence dye-based FLIPR assay
Format: cell-based

IC50: 1.7 µM
SMILES: c1ccc([C@H]2CC[C@@H](N3CCN(Cc4cccnc4)CC3)CC2)cc1
